# According to patent publication US4801596A, “Nitroxy amino propanols for treating heart and circulatory diseases” (Boehringer Mannheim GmbH, priority 1984, dated 1989):
# Tested on: rat livers
# Test: denitration rate in re-perfused rat livers (nitrate-like action)
# Settings: rat liver re-perfused 4 min, equimolar 5×10^-5 M/l; freed NO2 determined in the perfusate; high values = fast denitration
smiles,measurement,value
O=[N+]([O-])O[C@H]1CO[C@H]2[C@@H]1OC[C@H]2O[N+](=O)[O-],Vrel (denitration rate in relation to isosorbide-5-mononitrate),17.5
